Laboratory results taken from patent publication US20260364057A1, “AMIDE COMPOUND, AND COMPOSITION AND USE THEREOF” (SIMCERE ZAIMING PHARMACEUTICAL CO., LTD., priority 2022, published 2026).

Amino acid sequences for entries named in this document (tags omitted). Residues count along the entry.
UniProt Q8NI77, 1-376 limits assumed: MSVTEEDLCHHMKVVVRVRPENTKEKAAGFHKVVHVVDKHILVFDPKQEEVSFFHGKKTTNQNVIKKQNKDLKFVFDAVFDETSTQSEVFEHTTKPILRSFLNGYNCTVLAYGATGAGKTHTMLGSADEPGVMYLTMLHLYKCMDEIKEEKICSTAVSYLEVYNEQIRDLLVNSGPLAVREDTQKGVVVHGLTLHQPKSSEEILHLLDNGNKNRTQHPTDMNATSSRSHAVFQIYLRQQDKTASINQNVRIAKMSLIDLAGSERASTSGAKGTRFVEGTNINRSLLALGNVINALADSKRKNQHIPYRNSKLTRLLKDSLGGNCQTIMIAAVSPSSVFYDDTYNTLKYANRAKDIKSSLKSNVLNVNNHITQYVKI

Target: Human KIF18A (1-376aa) (Homo sapiens, UniProt Q8NI77)
Experiment: KIF18A enzyme activity assay (ADP-Glo)
Type: biochemical
Conditions: read-out: KIF18A inhibitory activity IC50, microtubule 50 μg/mL, ATP (Km 70 μM), room temperature, 15 min

| IC50 | SMILES |
| --- | --- |
| < 200 nM | O=C(Nc1cc(F)cc2c1nc1n2CCCC1)c1ccc(NS(=O)(=O)CCO)cc1N1CCC2(CC1)CC2 |
| < 200 nM | O=C(Nc1cccc2c1nc1n2CC2CC1C2)c1ccc(NS(=O)(=O)CCO)cc1N1CCC2(CC1)CC2 |
